Test results as given in ChEMBL document CHEMBL3588789, “Synthesis and Pharmacokinetic Evaluation of Siderophore Biosynthesis Inhibitors for Mycobacterium tuberculosis” (J Med Chem, 2015).

How the values were obtained:
[1] = AUC (0 to infinity) in Sprague-Dawley rat at 25 mg/kg, po by LC-MS/MS method; format: ADME, organism-based; set-up: dose 25 mg/kg, time infinity, route oral; conditions: in vivo
How it was run: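 Female Sprague-Dawley rats (250–274 g), catheterised, 3 per compound, dosed by oral gavage at 25 mg/kg from a 10 mg/mL solution. Femoral-vein blood taken at 0, 15, 30, 45, 60, 120, 240 and 480 min into K2EDTA. Plasma protein-precipitated with an internal standard and quantified by LC–MS/MS against standards in rat plasma. Parameters by non-compartmental analysis.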

[2] = test system: Caco-2; assay: Efflux ratio in human Caco2 cells after 30 to 120 mins by HPLC method; format: ADME, cell-based
How it was run: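 Caco-2 cells (passage 50–70) grown 21 days on Transwell inserts, used only where TEER >300. Apical buffer pH 6.0, basolateral pH 7.4, 60 min preincubation. Compound dosed from a 20 mM DMSO stock with lucifer yellow on the donor side. Samples analysed by HPLC. Papp = (dQ/dt)/(A·C0) from cumulative sampling. Efflux ratio from B–A and A–B values.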

CCN(CC)CC.Nc1ncnc2c1ncn2[C@@H]1O[C@H](CNS(=O)(=O)NC(=O)c2ccccc2O)[C@@H](O)[C@H]1O
AUC(0-inf) [1]: 1660 ng·h/mL
Ratio [2]: 0.69
